{"source": "patent US5455161A", "about": "“Method for the monitoring of multiple anticancer drug resistance” (priority 1992, dated 1995)", "test_system": "T19 cells", "assay": "ODC (ornithine decarboxylase activity) assay of drug resistance, multidrug resistant T19 cells", "assay_type": "cell-based, Chinese hamster", "details": "exposure 6, 18 and 48 hours", "procedure": "The protein determinations were carried out according to the method of Bradford (Anal.Biochem. 72, 248-54, 1976), using lysozyme, triple crystallization and dialysis, as a standard.\nMonolayers of parental AA8 and multidrug resistant T19 cells grown for 4 days at 37° C., were exposed to various concentrations of the antimitotic agent colchinine, for 6 hours, 18 hours and 48 hours and then the activity of ornithine decarboxylase was determined.\nIn the same manner, this assay was tested with various anticancer drugs of various structure and distinct mechanisms of action. The following cytotoxic agents were tested: vinca alkaloids, anthracyclines, epipodophyllotoxins, actinomycin D and antifolates."}
{"smiles": "COc1cc2c(c(OC)c1OC)-c1ccc(OC)c(=O)cc1[C@@H](NC(C)=O)CC2", "note": "[Colchicine]", "values": [{"measurement": "ornithine decarboxylase activity with increased drug concentrations", "value": "dose-dependent decrease"}]}
